Values of other authors in patent EP0649656B1, “Pharmaceutical compositions based on acriflavine useful for the treatment of herpes and zona” (priority 1993, dated 1995).

Settings: cited from earlier work

## acriflavine [ACF]
  solubilité dans le chloroforme: pratiquement insoluble
